The experiment has as its target Voltage-dependent calcium channel subunit alpha-2/delta-1 (Homo sapiens, UniProt P54289).

Chains of the proteins cited; added tags and fusions are not shown. Residues count along the entry.
UniProt P54289, 957-1103 limits assumed: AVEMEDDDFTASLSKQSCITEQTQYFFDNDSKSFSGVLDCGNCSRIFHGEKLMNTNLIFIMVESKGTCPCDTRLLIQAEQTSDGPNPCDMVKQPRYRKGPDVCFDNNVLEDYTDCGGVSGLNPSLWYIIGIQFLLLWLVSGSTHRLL
UniProt P54289, 25-956 limits assumed: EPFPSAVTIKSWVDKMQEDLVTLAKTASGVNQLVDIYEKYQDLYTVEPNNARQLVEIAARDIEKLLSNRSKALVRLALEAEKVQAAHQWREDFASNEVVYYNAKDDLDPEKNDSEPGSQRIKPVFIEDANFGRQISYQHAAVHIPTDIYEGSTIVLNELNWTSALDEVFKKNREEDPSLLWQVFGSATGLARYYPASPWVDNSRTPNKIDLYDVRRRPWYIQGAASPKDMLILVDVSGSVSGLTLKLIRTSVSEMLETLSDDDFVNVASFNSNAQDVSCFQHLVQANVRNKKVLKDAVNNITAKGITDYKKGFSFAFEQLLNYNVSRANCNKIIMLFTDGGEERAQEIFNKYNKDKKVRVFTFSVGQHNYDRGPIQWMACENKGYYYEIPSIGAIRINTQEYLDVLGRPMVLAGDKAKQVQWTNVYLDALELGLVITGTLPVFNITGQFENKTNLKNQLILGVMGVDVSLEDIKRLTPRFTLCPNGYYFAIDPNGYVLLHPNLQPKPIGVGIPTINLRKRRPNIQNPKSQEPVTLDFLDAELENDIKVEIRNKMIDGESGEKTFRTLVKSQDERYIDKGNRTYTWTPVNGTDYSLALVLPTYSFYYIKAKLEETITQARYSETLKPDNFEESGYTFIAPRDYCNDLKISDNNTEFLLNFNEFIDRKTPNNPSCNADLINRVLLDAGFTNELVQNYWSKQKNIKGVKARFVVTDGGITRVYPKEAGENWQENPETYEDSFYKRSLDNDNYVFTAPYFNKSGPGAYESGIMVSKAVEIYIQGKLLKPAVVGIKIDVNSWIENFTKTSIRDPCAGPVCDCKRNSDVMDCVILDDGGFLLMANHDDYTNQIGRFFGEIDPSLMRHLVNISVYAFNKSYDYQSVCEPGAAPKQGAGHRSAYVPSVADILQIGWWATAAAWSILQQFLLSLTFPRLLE

`O=C(c1cccs1)N(c1ccn(-c2ccccc2)n1)C1CCNCC1`: the Ki worked out at 300 nM.

(Values after BindingDB's records for US10577360.)
